The subject of the assay is 15-LO. Put plainly: 15-HETE formation in intact PMNL. The note with it: 20 µM AA, 2.5 µM A23187, (95% CI), n = 3–6.

Some compounds may have been tested in ways that are not shown here.

Turning to `N#CC(C#N)=Cc1ccccc1`, the “IC50 for inhibition of 15-HETE formation, PMNL” value is “no inhibition”.

Source of the values: PMC11582101, “Unlocking the potential: unveiling tyrphostins with Michael-reactive cyanoacrylate motif as promising inhibitors of human 5-lipoxygenase” (Pflugers Archiv, 2024).
